By UniProt entry, the sequences of proteins in these tests, tags left out. Chains listed by the source or under a name are the forms on record and can include a tag or linker.
UniProt P05771, other isoform, or with tags, fused parts or gaps: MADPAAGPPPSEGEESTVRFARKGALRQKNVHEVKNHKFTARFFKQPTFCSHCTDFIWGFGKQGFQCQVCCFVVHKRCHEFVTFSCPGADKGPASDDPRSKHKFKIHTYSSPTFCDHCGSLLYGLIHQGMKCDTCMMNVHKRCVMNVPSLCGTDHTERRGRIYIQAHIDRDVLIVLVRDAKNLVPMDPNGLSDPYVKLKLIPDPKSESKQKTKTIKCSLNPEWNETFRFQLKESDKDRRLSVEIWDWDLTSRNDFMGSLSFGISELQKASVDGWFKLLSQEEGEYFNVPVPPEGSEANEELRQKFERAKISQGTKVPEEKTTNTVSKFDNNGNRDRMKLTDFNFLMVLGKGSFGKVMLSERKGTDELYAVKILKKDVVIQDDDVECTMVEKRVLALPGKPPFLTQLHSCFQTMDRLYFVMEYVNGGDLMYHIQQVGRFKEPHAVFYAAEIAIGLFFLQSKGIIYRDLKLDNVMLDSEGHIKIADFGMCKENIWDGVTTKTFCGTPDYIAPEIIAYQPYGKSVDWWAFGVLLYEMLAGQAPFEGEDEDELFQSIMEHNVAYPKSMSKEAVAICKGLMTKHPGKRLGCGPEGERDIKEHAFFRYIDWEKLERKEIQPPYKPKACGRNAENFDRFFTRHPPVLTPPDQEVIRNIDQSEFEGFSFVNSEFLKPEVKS

In EP1120414A1, “DISUBSTITUTED MALEIMIDE COMPOUNDS AND MEDICINAL UTILIZATION THEREOF” (Japan Tobacco Inc., priority 1998, dated 2000):

How the values were obtained:
PKC β II = molecular target: T1, PKC β II (Homo sapiens, UniProt P05771); experiment: PKC enzyme assay (BIOTRAK Protein kinase C enzyme assay system, 32P-ATP phosphorylation of peptide […]); assay type: biochemical; conditions: IC50 PKC α / IC50 PKC β II
T1 construct: purchased CALBIOCHEM
From the text: The method for determining the PKC inhibitory activity of the compound of the present invention is explained in the following. Inasmuch as PKCβII is present in greater number in intravascular cells than PKCβI, PKCβII was mainly used here to test the enzyme activity.
As the reagent for enzyme assay, BIOTRAK Protein kinase C enzyme assay system (hereinafter the system, Amersham), and as the PKC enzyme standard product, Protein Kinase C, Human Recombinant (CALBIOCHEM) were purchased and used in the assay. […] The reaction terminator (300 mM orthophosphoric acid containing carmosine red) attached to the system was added in the amount equivalent to the substrate mixture to end the reaction, and the reaction mixture was spotted on a phosphocellulose paper (Whatman, P-81), washed twice with 75 mM orthophosphoric acid and assayed for radioactivity by BAS2000 (Fuji film).
(§1) The ratio of the radioactivity of the addition of the test substance to the addition of DMSO was determined, and IC50 was calculated from inhibition at each concentration.

PKC α = molecular target: T2, PKC α (Homo sapiens, UniProt P17252); experiment: as above; assay type: biochemical
T2 construct: purchased CALBIOCHEM
Method: As the reagent for enzyme assay, BIOTRAK Protein kinase C enzyme assay system (hereinafter the system, Amersham), and as the PKC enzyme standard product, Protein Kinase C, Human Recombinant (CALBIOCHEM) were purchased and used in the assay. A substrate mixture was prepared by mixing calcium buffer (12 mM calcium acetate, 50 mM Tris/HCl pH 7.5, 0.05% (w/v) sodium azide), Lipid (0.3 mg/ml La-phosphatidyl-L-serine, […] phorbol 12-myristate 13-acetate, 50 mM Tris/HCl pH 7.5, 0.05% (w/v) sodium azide), peptide buffer (900 µM peptide […]), 50 mM Tris/HCl pH 7.5, 0.05% (w/v) sodium azide), DTT buffer (30 mM dithiothreitol, 50 mM Tris/HCl pH 7.5, 0.05% (w/v) sodium azide), and magnesium ATP buffer (1.2 mM ATP, […] pH 7.4, 72 mM magnesium chloride) all attached to the system in a ratio of 1:1:1:1:0.8 and adding [ y -32P]ATP (Amersham, cat. […] The reaction terminator (300 mM orthophosphoric acid containing carmosine red) attached to the system was added in the amount equivalent to the substrate mixture to end the reaction, and the reaction mixture was spotted on a phosphocellulose paper (Whatman, P-81), washed twice with 75 mM orthophosphoric acid and assayed for radioactivity by BAS2000 (Fuji film).
as §1

Ratio α/β (PKC β II): 40
IC50 (PKC α): 0.399 µM
SMILES: O=C1NC(=O)C(c2cn(CCCN3CCCCCC3)c3ccccc23)=C1Nc1ccccc1 [Example 2-23, 3-[1-(3-azacycloheptan-1-ylpropyl)-1H-indol-3-yl]-4-(phenylamino)-1H-pyrrole-2,5-dione]
